Measurements taken from US7964629B2, “Inhibitors of isoprenylcysteine carboxyl methyltransferase” (Duke Universtiy, priority 2005, dated 2011).

Sequences of proteins named here, by UniProt entry; tags and fusion partners are left off.
UniProt O60725, whole entry: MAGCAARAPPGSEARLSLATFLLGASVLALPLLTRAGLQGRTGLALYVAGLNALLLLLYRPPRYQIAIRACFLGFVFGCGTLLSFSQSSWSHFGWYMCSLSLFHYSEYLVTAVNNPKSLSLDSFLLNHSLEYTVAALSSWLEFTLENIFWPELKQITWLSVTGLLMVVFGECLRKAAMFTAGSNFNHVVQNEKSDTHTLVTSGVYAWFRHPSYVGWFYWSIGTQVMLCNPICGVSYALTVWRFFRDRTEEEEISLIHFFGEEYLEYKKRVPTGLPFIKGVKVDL

Biological target: recombinant human Icmt (Homo sapiens, UniProt O60725)
Assay: Icmt assay: [3H]methyl incorporation from [3H]AdoMet into BFC
Type: biochemical

SMILES: Cc1cccc(-c2ccc3c(c2)c(CC(N)=O)cn3Cc2ccc3ccccc3c2)c1
- IC50 (Table 1, R1 substituent x scaffold matrix): 17.2 µM
- IC50 (read-out: IC50 No PI, Table 3, without pre-incubation of the enzyme with the compound): 17.2 µM
- IC50 (read-out: IC50 PI, Table 3, pre-incubation with Icmt for 30 min at 37° C.): 1.34 µM

Where two headings read alike, the source gives them in different places.
